The values that follow come from patent US20230064983A1 (priority 2020, published 2023).

Protein sequences, listed by entry. Tags and fused reporters are not part of them. Chains listed by the source or under a name are the forms on record and can include a tag or linker. Residues count along the entry.
UniProt P00533, with tags, fused parts or gaps DUP768-770: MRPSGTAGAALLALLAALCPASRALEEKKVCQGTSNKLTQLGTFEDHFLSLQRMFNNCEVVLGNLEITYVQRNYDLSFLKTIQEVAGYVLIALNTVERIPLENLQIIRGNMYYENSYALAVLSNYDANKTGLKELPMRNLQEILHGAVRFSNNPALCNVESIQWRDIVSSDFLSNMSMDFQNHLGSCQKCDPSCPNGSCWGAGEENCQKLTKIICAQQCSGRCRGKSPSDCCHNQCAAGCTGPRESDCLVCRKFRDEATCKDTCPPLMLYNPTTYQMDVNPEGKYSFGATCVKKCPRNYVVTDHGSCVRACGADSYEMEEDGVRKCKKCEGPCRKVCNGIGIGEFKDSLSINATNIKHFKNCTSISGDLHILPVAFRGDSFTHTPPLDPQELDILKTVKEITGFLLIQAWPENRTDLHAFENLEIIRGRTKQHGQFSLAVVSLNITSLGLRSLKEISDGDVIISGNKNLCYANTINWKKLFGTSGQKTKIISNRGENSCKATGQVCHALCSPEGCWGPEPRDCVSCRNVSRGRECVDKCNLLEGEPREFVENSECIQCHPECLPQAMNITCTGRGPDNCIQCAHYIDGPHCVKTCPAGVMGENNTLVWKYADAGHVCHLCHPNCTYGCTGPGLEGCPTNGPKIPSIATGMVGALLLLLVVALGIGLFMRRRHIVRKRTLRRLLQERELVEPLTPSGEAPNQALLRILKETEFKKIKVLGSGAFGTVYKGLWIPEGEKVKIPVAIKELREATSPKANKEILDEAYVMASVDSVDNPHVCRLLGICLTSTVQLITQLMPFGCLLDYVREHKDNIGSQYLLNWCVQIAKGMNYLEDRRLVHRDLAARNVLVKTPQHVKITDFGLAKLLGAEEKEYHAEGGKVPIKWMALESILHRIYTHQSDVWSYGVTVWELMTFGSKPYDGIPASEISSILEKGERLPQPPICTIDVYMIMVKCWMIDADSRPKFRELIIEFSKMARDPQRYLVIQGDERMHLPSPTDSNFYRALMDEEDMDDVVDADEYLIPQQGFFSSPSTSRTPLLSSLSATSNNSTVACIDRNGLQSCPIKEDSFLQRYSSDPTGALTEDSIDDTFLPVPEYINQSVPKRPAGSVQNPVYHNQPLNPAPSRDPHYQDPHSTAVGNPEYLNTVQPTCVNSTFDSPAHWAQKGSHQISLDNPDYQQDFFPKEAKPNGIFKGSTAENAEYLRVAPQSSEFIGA
UniProt P00533, whole entry: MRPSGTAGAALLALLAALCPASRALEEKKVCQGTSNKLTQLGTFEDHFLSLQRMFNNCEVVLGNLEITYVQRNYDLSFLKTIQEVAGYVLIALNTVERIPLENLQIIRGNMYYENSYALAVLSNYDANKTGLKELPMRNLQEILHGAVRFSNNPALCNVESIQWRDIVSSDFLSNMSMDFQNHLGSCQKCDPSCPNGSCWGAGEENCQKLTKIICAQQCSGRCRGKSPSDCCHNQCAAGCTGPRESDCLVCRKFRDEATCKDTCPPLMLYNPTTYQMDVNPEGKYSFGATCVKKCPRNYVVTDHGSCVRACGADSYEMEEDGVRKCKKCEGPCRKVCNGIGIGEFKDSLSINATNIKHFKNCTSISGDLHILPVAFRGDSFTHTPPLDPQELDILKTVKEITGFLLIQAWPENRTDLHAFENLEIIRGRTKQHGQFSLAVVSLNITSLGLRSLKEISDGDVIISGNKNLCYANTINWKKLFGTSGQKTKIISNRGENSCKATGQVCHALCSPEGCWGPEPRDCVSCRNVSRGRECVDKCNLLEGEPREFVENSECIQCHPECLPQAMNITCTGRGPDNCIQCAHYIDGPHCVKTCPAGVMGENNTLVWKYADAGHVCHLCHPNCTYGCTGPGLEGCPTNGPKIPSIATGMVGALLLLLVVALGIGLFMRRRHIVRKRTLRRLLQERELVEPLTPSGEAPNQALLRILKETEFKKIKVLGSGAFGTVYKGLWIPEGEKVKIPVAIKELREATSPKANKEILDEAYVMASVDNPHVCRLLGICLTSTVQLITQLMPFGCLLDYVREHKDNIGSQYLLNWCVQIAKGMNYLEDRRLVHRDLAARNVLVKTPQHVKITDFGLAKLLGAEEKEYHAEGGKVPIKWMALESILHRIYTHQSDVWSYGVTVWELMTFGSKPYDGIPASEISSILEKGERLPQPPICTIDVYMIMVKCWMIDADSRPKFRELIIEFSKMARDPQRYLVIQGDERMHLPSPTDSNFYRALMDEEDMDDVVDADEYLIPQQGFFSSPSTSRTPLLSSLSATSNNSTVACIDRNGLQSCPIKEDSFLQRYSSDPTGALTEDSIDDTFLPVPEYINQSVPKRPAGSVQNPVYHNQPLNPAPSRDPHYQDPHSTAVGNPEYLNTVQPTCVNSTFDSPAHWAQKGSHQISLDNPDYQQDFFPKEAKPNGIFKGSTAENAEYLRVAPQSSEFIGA
UniProt P00533, 669-1210 with tags or gaps DUP768-770 limits assumed: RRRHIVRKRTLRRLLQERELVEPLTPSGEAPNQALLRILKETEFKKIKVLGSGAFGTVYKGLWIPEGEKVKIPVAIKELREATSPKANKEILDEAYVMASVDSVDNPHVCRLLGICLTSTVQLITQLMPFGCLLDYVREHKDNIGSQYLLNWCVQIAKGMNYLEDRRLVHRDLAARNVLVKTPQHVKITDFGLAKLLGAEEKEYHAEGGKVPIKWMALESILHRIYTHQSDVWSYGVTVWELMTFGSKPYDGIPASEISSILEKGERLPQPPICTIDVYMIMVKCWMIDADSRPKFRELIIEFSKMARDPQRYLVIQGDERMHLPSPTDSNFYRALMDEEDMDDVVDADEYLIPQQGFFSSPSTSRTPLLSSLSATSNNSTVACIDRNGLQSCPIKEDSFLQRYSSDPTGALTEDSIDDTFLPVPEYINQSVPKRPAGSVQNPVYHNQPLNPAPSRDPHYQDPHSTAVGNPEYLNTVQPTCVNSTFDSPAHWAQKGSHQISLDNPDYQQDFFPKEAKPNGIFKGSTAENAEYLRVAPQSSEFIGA

Test [1] concerns the target Ba/F3-EGFR-D770_N771insSVD cells (Homo sapiens, UniProt P00533, DUP768-770, cells depend on it). Briefly: Ba/F3 cell survival assay, EGFR D770_N771insSVD. To be noted: read-out: BA/F3 (insSVD) IC50; prior art compounds of WO 2016/120196; Table 5.
The target in the next test is Ba/F3-EGFR-WT cells (Homo sapiens, UniProt P00533). Briefly: Ba/F3 cell survival assay, wild type EGFR. As to conditions: read-out: BA/F3 (wild type) IC50; prior art compounds of WO 2016/120196; Table 5.
Test [2] concerns the target EGFR with insertion SVD between D770 and N771 (mutEGFR D770_N771insSVD) (Homo sapiens, UniProt P00533, DUP768-770). Briefly: Exon20-Mutant-EGFR(D770_N771insSVD) kinase assay (TR-FRET). Format: biochemical. As to conditions: read-out: mutEGFR (D770_N771insSVD) kinase assay IC50; prior art compounds of WO 2016/120196; Table 5. On the technique in general: TR-FRET usually uses a lanthanide donor and a delayed reading to cut background.

The IC50 is the point on the concentration scale where inhibition reaches its midpoint.

Consider `O=C1NCCc2[nH]c(-c3ccncc3OCC3CC3)c(Nc3ccc(F)cc3)c21`, for which the GI50 in test [1] was above 2000 nM.
In the case of `CC1(C)Cc2[nH]c(-c3ccncc3)c(Nc3ccccc3)c2C(=O)N1`, the GI50 on Ba/F3-EGFR-WT cells was 1530 nM; in test [1], above 1000 nM. Also, in test [2], the IC50 stood at 200 nM.
With `O=C1NCCc2[nH]c(-c3ccncc3OCC(F)F)c(Nc3cccc(F)c3)c21`, in test [1], the GI50 is above 2000 nM.
`COCCOc1cnccc1-c1[nH]c2c(c1Nc1ccc(F)c(F)c1)C(=O)NCC2`: the GI50 in test [1] is above 2000 nM.
